# In patent publication US12642838B2, “Method of modulating sensitivity to tyrosine kinase inhibitor” (SINGAPORE HEALTH SERVICES PTE LTD, priority 2020, dated 2026):
# Test system: EGFR Q787Q A/A cell lines
# Assay: Response to gefitinib of EGFR Q787Q G/G (WT) and A/A cell lines
# Format: cell-based
# Details: cell lines with EGFR SNP Q787Q A/A
structure (smiles),measurement,value
COc1cc2ncnc(Nc3ccc(F)c(Cl)c3)c2cc1OCCCN1CCOCC1 [gefitinib],response to gefitinib,sensitive to epidermal growth factor receptor tyrosine kinase inhibitors
